Measured values: ChEMBL document CHEMBL1137783 (J Med Chem, 2009)

Sequences of proteins named here, by UniProt entry; tags and fusion partners are left off. A change or cut given only in a name is not applied to a line headed by its entry.
UniProt Q12809: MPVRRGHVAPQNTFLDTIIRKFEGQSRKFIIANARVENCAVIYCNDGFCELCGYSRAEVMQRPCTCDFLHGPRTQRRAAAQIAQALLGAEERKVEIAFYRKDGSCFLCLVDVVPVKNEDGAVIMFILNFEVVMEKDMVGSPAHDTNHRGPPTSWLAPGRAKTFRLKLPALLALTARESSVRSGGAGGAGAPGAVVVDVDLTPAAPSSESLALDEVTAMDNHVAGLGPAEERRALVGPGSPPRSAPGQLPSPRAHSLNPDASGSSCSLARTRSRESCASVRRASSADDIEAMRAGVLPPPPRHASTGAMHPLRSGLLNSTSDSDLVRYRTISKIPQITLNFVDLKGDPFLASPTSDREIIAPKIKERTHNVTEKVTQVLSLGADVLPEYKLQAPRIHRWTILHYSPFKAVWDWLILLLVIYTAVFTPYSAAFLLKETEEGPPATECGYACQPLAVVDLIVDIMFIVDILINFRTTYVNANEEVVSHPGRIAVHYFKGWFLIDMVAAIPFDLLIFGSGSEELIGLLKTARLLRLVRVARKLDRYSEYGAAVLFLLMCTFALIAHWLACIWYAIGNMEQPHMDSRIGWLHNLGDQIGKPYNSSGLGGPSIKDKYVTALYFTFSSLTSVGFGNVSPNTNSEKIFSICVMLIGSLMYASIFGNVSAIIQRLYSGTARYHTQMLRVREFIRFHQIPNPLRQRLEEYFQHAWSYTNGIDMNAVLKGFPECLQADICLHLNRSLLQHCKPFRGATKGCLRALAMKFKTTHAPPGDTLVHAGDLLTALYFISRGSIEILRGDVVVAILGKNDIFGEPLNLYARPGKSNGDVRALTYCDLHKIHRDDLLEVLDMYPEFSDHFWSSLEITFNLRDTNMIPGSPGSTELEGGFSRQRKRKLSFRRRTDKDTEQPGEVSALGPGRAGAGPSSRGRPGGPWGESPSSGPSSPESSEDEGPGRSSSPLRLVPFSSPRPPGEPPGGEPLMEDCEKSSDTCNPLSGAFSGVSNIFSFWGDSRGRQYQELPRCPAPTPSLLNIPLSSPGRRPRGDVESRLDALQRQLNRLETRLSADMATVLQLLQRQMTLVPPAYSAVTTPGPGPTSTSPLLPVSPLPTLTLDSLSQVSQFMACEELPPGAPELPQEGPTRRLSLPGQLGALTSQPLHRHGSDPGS

Target: Voltage-gated inwardly rectifying potassium channel KCNH2 (Homo sapiens, UniProt Q12809)
Experiment: Inhibition of human ERG channel

For `O=C1Cc2cc(CCN3CCN(c4nsc5ccccc45)CC3)c(Cl)cc2N1` [ZIPRASIDONE], the pIC50 was 6.903.
